Ki data for one molecule are collected here from BindingDB's records for doi:10.1016/j.chembiol.2011.05.012 (University of Bern, 2011).

The chains behind the UniProt entries cited, without tags or fusion partners.
UniProt P34972, whole entry: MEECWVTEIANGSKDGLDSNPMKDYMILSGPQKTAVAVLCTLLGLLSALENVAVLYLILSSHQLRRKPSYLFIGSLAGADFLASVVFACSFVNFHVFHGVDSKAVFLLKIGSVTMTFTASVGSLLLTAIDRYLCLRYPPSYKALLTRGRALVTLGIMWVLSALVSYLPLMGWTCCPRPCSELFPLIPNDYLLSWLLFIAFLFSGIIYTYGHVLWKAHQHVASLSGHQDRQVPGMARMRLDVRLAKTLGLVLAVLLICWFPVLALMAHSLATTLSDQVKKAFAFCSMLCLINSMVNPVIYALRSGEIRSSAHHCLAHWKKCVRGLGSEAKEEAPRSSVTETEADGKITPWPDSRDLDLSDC

The target of the experiment is Cannabinoid receptor 2 (Homo sapiens, UniProt P34972). Description: Binding Assay. The source says:
Binding assay with hCB1 and hCB2 receptors.

The term Ki denotes a dissociation constant, usually derived from enzyme kinetics or from competition with a known ligand. A lower Ki goes with tighter binding. Molecule `CCCCC/C=C/C/C=C/C/C=C/C/C=C/CCCC(=O)NCCO` [Arachidonoylethanolamide, AEA] displayed a Ki of 278 nM.
